Ab-91 heavy chain CDR variants: yeast mating affinities

The target is the same throughout: PDVDLGDISGINAS, from the HR2 region of SARS-CoV-2 spike.

Parent: Ab-91, a human scFv built as VL, the linker GGGGSGGGGSGGGGS, VH. Only the CDRs of the heavy chain vary.
VL: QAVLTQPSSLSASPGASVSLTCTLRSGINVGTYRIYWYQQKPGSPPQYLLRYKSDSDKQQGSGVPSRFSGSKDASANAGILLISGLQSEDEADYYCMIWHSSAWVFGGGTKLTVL
VH: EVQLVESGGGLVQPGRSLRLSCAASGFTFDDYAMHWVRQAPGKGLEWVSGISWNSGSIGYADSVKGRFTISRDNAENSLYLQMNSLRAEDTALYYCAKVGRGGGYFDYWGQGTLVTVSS

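The starting antibody came from a phage panning campaign against this peptide. Library AAYL51 holds single substitutions and randomly drawn double and triple substitutions in the CDRs. Affinity was read by AlphaSeq, a pooled yeast mating assay with surface-displayed partners. The frequency of each diploid, read from paired DNA barcodes, reflects how well the two displayed proteins bind. A regression on co-assayed BCL2-family reference pairs converts the normalised counts of each replicate to an apparent Kd. The assay was run in three technical replicates.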

Positions count from residue 1 of the parent VH; Y60R puts R in place of Y.
Affinities are written as log10 Kd with Kd in nM; a lower number is a better binder.
A mean of the replicates is given; it leaves out those without a signal.
A pair that was not seen in that replicate is written "n.d."; this usually means weak binding, but a binder can also be missed.
Nonspecific signal, from three strains lacking the peptide, appeared in 21% of pairings of library AAYL51, centred on 4.54 (5% of these signals below 3.26); values are not corrected for it. For each scFv, signals with the empty controls are counted beside the result, with their mean in brackets.
In this assay the parent's reference entry averaged 1.86; its copy inside this library read 0.88.

changes	replicates, log10 nM	mean log10 Kd (nM)	empty controls
Y60R+A61C+D62M	n.d. n.d. n.d.	n.d.	0 of 9
A33L+G59R+Y105E	4.77 n.d. n.d.	4.77	1 of 9 (3.30)
N54L+D62M+G104Y	n.d. n.d. n.d.	n.d.	0 of 9
Y60A+A61W+F106V	n.d. n.d. n.d.	n.d.	3 of 9 (3.89)
S57L+D62R+G104S	3.51 n.d. n.d.	3.51	1 of 9 (4.19)
F29D+R101V+Y108L	5.37 6.07 6.07	5.84	6 of 9 (5.06)
F27I+I51N+D107L	n.d. n.d. n.d.	n.d.	0 of 9
S63F+G100M+G104M	4.94 n.d. 5.49	5.22	3 of 9 (5.21)
G26N+G56L+A61H	2.71 3.50 4.54	3.58	2 of 9 (3.31)
M34P+S52F+Y108V	n.d. n.d. n.d.	n.d.	1 of 9 (4.47)
S52V+G59P+D107K	5.26 5.78 5.54	5.53	4 of 9 (5.01)
D31M+A61L+R101I	0.71 2.68 1.13	1.51	0 of 9
S52A+I58W+G100Y	5.85 5.82 5.08	5.58	3 of 9 (5.63)
A61Y+G104Y+Y108V	n.d. n.d. n.d.	n.d.	1 of 9 (2.24)
N54V+I58A+V99R	2.62 n.d. n.d.	2.62	1 of 9 (3.93)
G56P+G59C+G102W	3.83 6.38 3.06	4.42	3 of 9 (4.59)
T28R+W53I+R101P	4.07 n.d. n.d.	4.07	1 of 9 (3.35)
D30I+W53G+V99Q	n.d. n.d. n.d.	n.d.	0 of 9
Y32N+S57Q+G59M	n.d. n.d. n.d.	n.d.	0 of 9
I51P+D62F+G100I	4.56 5.49 n.d.	5.02	5 of 9 (5.24)
S52I+N54S	n.d. n.d. n.d.	n.d.	0 of 9
Y60M+D107V+Y108Q	4.04 n.d. n.d.	4.04	5 of 9 (5.00)
M34L+S63F+G100T	5.31 4.93 5.42	5.22	1 of 9 (4.25)
T28G+I51Q+V99R	n.d. n.d. n.d.	n.d.	3 of 9 (4.66)
F27T+Y60E+D62L	4.16 n.d. n.d.	4.16	1 of 9 (4.45)
G56T+D62Y+G102Y	n.d. n.d. n.d.	n.d.	1 of 9 (2.64)
Y32D+G50R+Y108D	n.d. n.d. n.d.	n.d.	0 of 9
H35P+A61Q+K65V	n.d. n.d. n.d.	n.d.	0 of 9
S52G+S57M	1.68 1.71 1.46	1.62	5 of 9 (5.34)
F29R+G50I+S52D	n.d. n.d. 4.35	4.35	3 of 9 (4.50)
W53N+G103F	n.d. n.d. n.d.	n.d.	0 of 9
A33Y+M34P+Y60I	5.06 4.64 4.37	4.69	2 of 9 (4.63)
W53Y+Y108A	n.d. 4.00 n.d.	4.00	1 of 9 (2.36)
Y32W+W53P+K65Y	2.23 2.57 2.05	2.28	1 of 9 (3.80)
N54K+G100D+Y105M	4.39 6.19 3.83	4.80	2 of 9 (4.62)
S52E+Y60I+V64S	4.54 5.21 4.23	4.66	4 of 9 (4.71)
D30W+S57W	n.d. n.d. 3.99	3.99	1 of 9 (4.20)
F29V+D31L+S57R	2.47 n.d. n.d.	2.47	1 of 9 (3.68)
A33W+S63N	n.d. n.d. n.d.	n.d.	1 of 9 (4.21)
S57R+G59I+G100T	n.d. n.d. n.d.	n.d.	0 of 9
D30K+D62A+G100P	3.39 3.22 3.12	3.24	4 of 9 (5.04)
G50L+G59D+G104I	n.d. 5.21 n.d.	5.21	0 of 9
S57T+F106G+Y108C	n.d. n.d. n.d.	n.d.	0 of 9
I58K+V99Q+G103C	1.20 1.22 0.73	1.05	8 of 9 (5.06)
K65Q+Y105I	3.67 3.64 3.32	3.55	9 of 9 (5.22)
G50W+I58W+S63I	n.d. n.d. n.d.	n.d.	1 of 9 (3.64)
M34E+G102Q	3.70 5.30 n.d.	4.50	1 of 9 (3.89)
M34F+D62G+G102E	n.d. 4.90 n.d.	4.90	1 of 9 (5.00)

Picked from the list: the 5 lowest averages where every replicate gave a value.

| changes | replicates, log10 nM | mean log10 Kd (nM) | empty controls |
|---|---|---|---|
| I58K+V99Q+G103C | 1.20 1.22 0.73 | 1.05 | 8 of 9 (5.06) |
| D31M+A61L+R101I | 0.71 2.68 1.13 | 1.51 | 0 of 9 |
| S52G+S57M | 1.68 1.71 1.46 | 1.62 | 5 of 9 (5.34) |
| Y32W+W53P+K65Y | 2.23 2.57 2.05 | 2.28 | 1 of 9 (3.80) |
| D30K+D62A+G100P | 3.39 3.22 3.12 | 3.24 | 4 of 9 (5.04) |

Reference: Engelhart et al. 2022, doi:10.1038/s41597-022-01779-4. File: FLAb, binding data.